Source: patent US20040267283A1, “Method, device and kit for body decoration” (priority 2003, published 2004)

Experiments:
Solubility of the dyes [1] = format: physicochemical; conditions: 20 mg/ml in ethanol + 30% ddw
Solubility of the dyes [2] = format: physicochemical
Procedure: In the first part of the in-vitro skin penetration study, the color application included the use of dyes D&C Green no. 6, FD&C Blue no. 1, FD&C Yellow no. 6, and FD&C Red no. 40. All chemicals used were analytical grade, obtained from standard supply houses (Sigma, VWR, etc.). The dyes were dissolve in ddw and the solution conductivity was measured using a dedicated apparatus. The target conductivity was defined as a minimum of 1 mAmp/cm^3 current at 3 volts. If such conductivity was not attained, the dye concentration and/or the voltage were increased. See Table 1 for the solubility and conductivity of the dyes.

With `O=S(=O)([O-])c1ccc(N=Nc2c(O)ccc3cc(S(=O)(=O)[O-])ccc23)cc1.[Na+].[Na+]` [Yellow no. 6, FD&C Yellow no. 6] the “Solubility (achieved by heating the solution)” value (Solubility of the dyes [1]) was “ddw (Solubility was achieved”, the Solubility (Solubility of the dyes [2]; 20 mg/ml in water) was “Soluble” and the Solubility (Solubility of the dyes [2]; 25 mg/ml in ddw with 30% ethanol) was “(Poor solubility)”. For the same molecule, the Solubility (Solubility of the dyes [2]; 60 mg/ml in ddw) was “(Was slightly insoluble)”.
